Results from ChEMBL document CHEMBL4376823, “The discovery of a potent and selective third-generation EGFR kinase inhibitor as a therapy for EGFR L858R/T790M double mutant non-small cell lung cancer” (Eur J Med Chem, 2019).

How the values were obtained:
[1] = species: Homo sapiens; experiment: Selectivity index, ratio of IC50 for recombinant human GST-tagged EGFR (668 to 1210 residues) expressed in baculovirus expression system to IC50 for recombinant human GST-tagged EGFR T790M/L858R expressed in baculovirus expression system
[2] = species: Homo sapiens; experiment: Selectivity index, ratio of EC50 for inhibition of EGFR in human NCI-H292 cells to EC50 for inhibition of EGFR T790M/L858R in human NCI-H1975 cells; assay type: cell-based

SMILES | Ratio IC50 [1] | Ratio EC50 [2]
C=CC(=O)Nc1cc(Nc2nccc(-c3cn(C)c4ccccc34)n2)c(OC)cc1[S+]([O-])CCN(C)C (racemic) | 49.8 | –
C=CC(=O)Nc1cc(Nc2nccc(-c3cn(C)c4ccccc34)n2)c(OC)cc1[S+]([O-])CCN(C)C (stereo in doubt; (+)-4i) | 53.9 | –
C=CC(=O)Nc1cc(Nc2nccc(-c3cn(C)c4ccccc34)n2)c(OC)cc1N(C)CCCl | 16.2 | –
C=CC(=O)Nc1cc(Nc2nccc(-c3cn(C)c4ccccc34)n2)c(OC)cc1N1CC[S+]([O-])CC1 | 5.61 | –
C=CC(=O)Nc1cc(Nc2nccc(-c3cn(C)c4ccccc34)n2)c(OC)cc1SCCN(C)C | 30.2 | –
C=CC(=O)Nc1cc(Nc2nccc(-c3cn(C)c4ccccc34)n2)c(OC)cc1N1CCS(=O)(=O)CC1 | 8.92 | –
C=CC(=O)Nc1cc(Nc2nccc(-c3cn(C)c4ccccc34)n2)c(OC)cc1N(C)CC[S+](C)[O-] (stereo unspecified) | 16.6 | –
C=CC(=O)Nc1cc(Nc2nccc(-c3cn(C)c4ccccc34)n2)c(OC)cc1[S+]([O-])CCN(C)C (single isomer, unassigned; (-)) | 55.9 | 12.8
C=CC(=O)Nc1cc(Nc2nccc(-c3cn(C)c4ccccc34)n2)c(OC)cc1N1CCSCC1 | 8.16 | –
C=CC(=O)Nc1cc(Nc2nccc(-c3cn(C)c4ccccc34)n2)c(OC)cc1N(C)CCSC | 6.65 | –
